Assay: Salt screening of the API with acids and solvents, XRPD measurement
Assay type: physicochemical
Set-up: key: NKP means no crystalline phase; KFA means free acid crystallizes
Conditions: API + acid
Description: The molar ratio between the H^+ concentration of the acid and of the API is 2 (for details see table 2). In each cavity of the microtiter plate, 68 microliters of the dissolved API are mixed with 40 microliters of the 0.1 normal acid solutions.
68 microliters of the dissolved API are pipetted into each cavity of a 96 microtiter plate. Then, in each case 40 microliters of the acids dissolved as in table 2 are added according to the scheme as detailed in table 3. The microtiter plate is shaken at room temperature for 20 min so that an equilibrium is formed in the cavities. Evaporation of the solvents at room temperature in a stream of nitrogen for 2 hours. Then, in each case 40 microliters of the solvents according to the scheme as detailed in table 3 are added. The microtiter plate is shaken at room temperature for 20 min so that an equilibrium is formed in the cavities. Evaporation of the solvent then takes place at room temperature in a stream of nitrogen for 2 hours. Finally, XRPD measurement is carried out.

| Substance | XRPD result of salt screening (solvent 2-Methyl-1-propanol) | XRPD result of salt screening (solvent 2-Propanol) | XRPD result of salt screening (solvent Butyl acetate) | XRPD result of salt screening (solvent Ethanol) | XRPD result of salt screening (solvent Methanol) | XRPD result of salt screening (solvent Methyl ethyl ketone) | XRPD result of salt screening (solvent Water) | XRPD result of salt screening (solvent Water:methanol 1:1) |
| --- | --- | --- | --- | --- | --- | --- | --- | --- |
| Acetic acid | NKP | NKP | NKP | NKP | NKP | NKP | NKP | NKP |
| Hydrochloric acid | NKP | NKP | NKP | NKP | NKP | NKP | NKP | NKP |
| Phosphoric acid | NKP | NKP | NKP | NKP | NKP | NKP | NKP | NKP |
| Succinic acid | KFA | KFA | KFA | KFA | NKP | NKP | NKP | NKP |

From patent US9156815B2, “Salt of (R)-3-(6-amino-pyridin-3-yl)-2-(1-Cyclohexyl-1H-imidazol-4-yl) ethyl propionate” (Sanofi, priority 2011, dated 2015)
